# Yeast mating assay 2: variants of the scFv Ab-91

Data: MIT Lincoln Laboratory AlphaSeq set, Engelhart et al. 2022, doi:10.1038/s41597-022-01779-4, as distributed in FLAb.

Target peptide (SARS-CoV-2 spike, HR2 region): PDVDLGDISGINAS

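The parent was found by panning a naive human phage display library on the peptide. Variants in AAYL51 differ from the parent at up to three CDR positions; double and triple changes were sampled at random. Affinity was read by AlphaSeq, a pooled yeast mating assay with surface-displayed partners. Pairs that bind mate more often; barcode pairs of the diploids are counted by sequencing. The ratio of observed to expected reads was calibrated, replicate by replicate, on BCL2-family standards whose Kd was known from biolayer interferometry. There are three technical replicates.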

Ab-91 is the parent antibody, in scFv form: VL, then a 15-residue (Gly4Ser)3 linker, then VH. The light chain is unchanged in all variants.
VL: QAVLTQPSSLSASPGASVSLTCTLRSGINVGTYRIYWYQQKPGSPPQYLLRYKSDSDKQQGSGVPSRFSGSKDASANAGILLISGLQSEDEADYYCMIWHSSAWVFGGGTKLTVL
VH: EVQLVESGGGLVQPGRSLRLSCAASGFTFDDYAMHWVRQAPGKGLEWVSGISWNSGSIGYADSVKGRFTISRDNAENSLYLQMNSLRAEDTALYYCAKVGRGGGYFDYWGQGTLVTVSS

Each variant's VH is given in full.
Values are log10 of the apparent Kd in nM; lower means stronger binding.
Where no diploid with the target was found in that replicate, the entry reads "nd": below detection, most likely a poor binder, though not proof of it.
For reference, the parent read 1.86 as the reference entry and 0.88 as a member of this library.

VH,log10 Kd (nM) by replicate,control signals
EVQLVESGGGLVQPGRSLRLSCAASGFTFDDYAMHWVRQAPGKGLEWVSGISWHSGSIGYADSVKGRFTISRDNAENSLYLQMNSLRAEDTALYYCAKVGRGGGYFDIWGQGTLVTVSS,1.92 1.80 1.69,0 of 9
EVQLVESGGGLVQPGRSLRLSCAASGFTFPDYWMHWVRQAPGKGLEWVSGISWNSGSIGYADSVKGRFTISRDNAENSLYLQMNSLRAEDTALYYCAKVGRGGEYFDYWGQGTLVTVSS,nd nd nd,0 of 9
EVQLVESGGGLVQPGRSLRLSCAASGRTFDDYAMHWVRQAPGKGLEWVSGISWNSGSIGYADSVKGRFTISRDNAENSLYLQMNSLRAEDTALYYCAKVGRGGDYFDYWGQGTLVTVSS,4.63 5.25 nd,0 of 9
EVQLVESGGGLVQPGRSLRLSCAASGWTFDDYAMHWVRQAPGKGLEWVSGISWNSGWIGYADSTKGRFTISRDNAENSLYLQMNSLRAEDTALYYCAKVGRGGGYFDYWGQGTLVTVSS,4.69 4.31 nd,5 of 9 (5.07)
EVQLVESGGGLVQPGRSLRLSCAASGFTFDDYAMLWVRQAPGKGLEWVSGISWNSGSIGYADSVKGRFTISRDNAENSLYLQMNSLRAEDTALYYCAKVGRGGGCFDYWGQGTLVTVSS,nd nd nd,0 of 9
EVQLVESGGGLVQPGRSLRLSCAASGFDFDDYAMHWVRQAPGKGLEWVSGICWNSGSIDYADSVKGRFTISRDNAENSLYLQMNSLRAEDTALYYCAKVGRGGGYFDYWGQGTLVTVSS,nd 4.42 nd,0 of 9
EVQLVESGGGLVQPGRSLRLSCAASGFTFDDYGMHWVRQAPGKGLEWVSGISWISGSIGYADSVKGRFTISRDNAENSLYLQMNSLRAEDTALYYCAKVPRGGGYFDYWGQGTLVTVSS,4.28 nd nd,0 of 9
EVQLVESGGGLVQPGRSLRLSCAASGNTFDDYAMHWVRQAPGKGLEWVSGISWNSGSIGYADSVKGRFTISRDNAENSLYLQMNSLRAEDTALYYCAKVMRGGGYFDYWGQGTLVTVSS,6.15 5.33 nd,6 of 9 (4.40)
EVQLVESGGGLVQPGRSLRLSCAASGFTFDDYPHHWVRQAPGKGLEWVSGISWNSGSIGYADSVKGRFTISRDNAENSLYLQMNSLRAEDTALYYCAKVGRGIGYFDYWGQGTLVTVSS,nd nd 3.13,3 of 9 (4.21)
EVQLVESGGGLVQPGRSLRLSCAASGFTFDDPAAHWVRQAPGKGLEWVSGISWNSGSIGYAQSVKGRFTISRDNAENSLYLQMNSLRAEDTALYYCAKVGRGGGYFDYWGQGTLVTVSS,5.89 5.85 4.99,5 of 9 (5.28)
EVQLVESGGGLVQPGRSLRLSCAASGFTFDDYAMHWVRQAPGKGLEWVSGISWNSGSIGYADSPKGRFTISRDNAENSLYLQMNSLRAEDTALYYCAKVGRKGGMFDYWGQGTLVTVSS,4.06 nd nd,6 of 9 (5.19)
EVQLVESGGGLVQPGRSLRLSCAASMFTFDDYAMAWVRQAPGKGLEWVSGISWNAGSIGYADSVKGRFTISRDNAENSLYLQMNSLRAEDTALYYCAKVGRGGGYFDYWGQGTLVTVSS,nd nd nd,0 of 9
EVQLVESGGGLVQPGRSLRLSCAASGYTFDDYAMHWVRQAPGKGLEWVSGIRWNSGSIGYADSVEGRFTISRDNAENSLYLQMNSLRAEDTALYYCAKVGRGGGYFDYWGQGTLVTVSS,nd nd nd,0 of 9
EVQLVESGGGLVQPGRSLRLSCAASGFTFDDYAMHWVRQAPGKGLEWVSGISWNSTSIGYADWVKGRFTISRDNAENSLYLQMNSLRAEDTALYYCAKVGRGGGYFDYWGQGTLVTVSS,nd nd nd,2 of 9 (4.00)
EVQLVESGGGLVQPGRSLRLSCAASGFTQDDYAYHWVRQAPGKGLEWVSGISWNSGSIGYADSVKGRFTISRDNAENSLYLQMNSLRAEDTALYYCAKEGRGGGYFDYWGQGTLVTVSS,nd nd nd,0 of 9
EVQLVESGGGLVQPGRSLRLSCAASGFNFDDEAMHWVRQAPGKGLEWVSGISWNSGSIGYADSVKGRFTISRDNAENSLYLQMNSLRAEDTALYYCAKVGRGDGYFDYWGQGTLVTVSS,3.35 4.59 4.13,1 of 9 (3.64)
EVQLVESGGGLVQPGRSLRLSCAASGFTFDDYAFHWVRQAPGKGLEWVSSISWNSGSIGYADSVKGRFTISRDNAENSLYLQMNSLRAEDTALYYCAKVGEGGGYFDYWGQGTLVTVSS,nd nd nd,0 of 9
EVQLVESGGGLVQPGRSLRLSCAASGFTFDDYAMHWVRQAPGKGLEWVSGISWNSGSIGYWDSVKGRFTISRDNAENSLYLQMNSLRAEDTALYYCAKVGRGGGYFDYWGQGTLVTVSS,4.20 4.40 5.05,4 of 9 (4.74)
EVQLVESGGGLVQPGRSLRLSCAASGFTFDDYAMHWVRQAPGKGLEWVSGISWNSGSIGLADSVKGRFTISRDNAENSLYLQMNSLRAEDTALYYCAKVGRDGGYWDYWGQGTLVTVSS,2.69 2.11 2.62,0 of 9
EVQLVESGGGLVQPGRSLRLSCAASGFTFDDYAMHWVRQAPGKGLEWVSGISWNSGSIGKAESVKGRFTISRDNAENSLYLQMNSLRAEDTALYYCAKVGRGGGYFDYWGQGTLVTVSS,nd nd nd,0 of 9
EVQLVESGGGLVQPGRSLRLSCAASGFTFDDYAMHWVRQAPGKGLEWVSGISWNSGSIGYACSVKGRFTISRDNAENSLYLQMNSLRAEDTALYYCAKVGRGGGEFDTWGQGTLVTVSS,4.04 nd nd,3 of 9 (3.57)
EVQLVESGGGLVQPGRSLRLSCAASGFTFHDYAMHWVRQAPGKGLEWVSGISWNRGSIGYADSVLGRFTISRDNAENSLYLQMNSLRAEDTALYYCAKVGRGGGYFDYWGQGTLVTVSS,nd 4.66 nd,4 of 9 (4.36)
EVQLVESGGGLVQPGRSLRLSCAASGEKFDDYAMHWVRQAPGKGLEWVSGISWNSGSIGYADSVKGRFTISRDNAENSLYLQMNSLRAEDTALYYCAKVGRGGGYFDYWGQGTLVTVSS,4.30 nd 4.01,2 of 9 (3.94)
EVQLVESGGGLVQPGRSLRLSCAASGRTFDDYDMHWVRQAPGKGLEWVSGISWNSGSIGYARSVKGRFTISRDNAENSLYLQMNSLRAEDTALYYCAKVGRGGGYFDYWGQGTLVTVSS,nd nd nd,0 of 9
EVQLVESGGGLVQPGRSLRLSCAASGGTRDDYAMHWVRQAPGKGLEWVSGISWNSGSHGYADSVKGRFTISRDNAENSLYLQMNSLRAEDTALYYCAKVGRGGGYFDYWGQGTLVTVSS,nd 4.83 nd,1 of 9 (4.09)

Top 3 of the variants detected in all replicates, tightest first:

VH,log10 Kd (nM) by replicate,control signals
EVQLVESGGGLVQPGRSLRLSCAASGFTFDDYAMHWVRQAPGKGLEWVSGISWHSGSIGYADSVKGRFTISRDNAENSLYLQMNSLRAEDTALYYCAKVGRGGGYFDIWGQGTLVTVSS,1.92 1.80 1.69,0 of 9
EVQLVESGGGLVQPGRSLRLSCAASGFTFDDYAMHWVRQAPGKGLEWVSGISWNSGSIGLADSVKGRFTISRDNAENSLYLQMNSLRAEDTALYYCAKVGRDGGYWDYWGQGTLVTVSS,2.69 2.11 2.62,0 of 9
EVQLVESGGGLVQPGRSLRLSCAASGFNFDDEAMHWVRQAPGKGLEWVSGISWNSGSIGYADSVKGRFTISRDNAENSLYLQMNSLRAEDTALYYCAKVGRGDGYFDYWGQGTLVTVSS,3.35 4.59 4.13,1 of 9 (3.64)

Three control strains display no target. For library AAYL51, 21% of the pairings with them gave a signal, with a median of 4.54 and one signal in twenty below 3.26, so weak values seen in few replicates may be background. Also given: how often the same scFv was detected with the empty control strains, with their mean in brackets.